This is an account of results in patent publication US20100004431A1 (Xencor, published 2010).

Chains of the proteins cited; added tags and fusions are not shown. Residues count along the entry.
UniProt P01375, 77-233 limits assumed: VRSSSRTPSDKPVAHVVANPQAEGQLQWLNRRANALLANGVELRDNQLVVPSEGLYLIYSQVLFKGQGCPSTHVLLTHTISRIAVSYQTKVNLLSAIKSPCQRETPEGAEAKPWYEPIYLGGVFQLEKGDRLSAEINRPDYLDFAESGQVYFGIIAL

The target in the experiment is TNFα (UniProt P01375 77-233). Description: SPR (Biacore), TNFα on CM5 chip, Fab injected; mean of two runs ± SD.

B1: anti-TNFα H0L0 (A2; infliximab) (Fab, V domains shown)
VH: EVKLEESGGGLVQPGGSMKLSCVASGFIFSNHWMNWVRQSPEKGLEWVAEIRSKSINSATHYAESVKGRFTISRDDSKSAVYLQMTDLRTEDTGVYYCSRNYYGSTYDYWGQGTTLTVSS
VL: DILLTQSPAILSVSPGERVSFSCRASQFVGSSIHWYQQRTNGSPRLLIKYASESMSGIPSRFSGSGSGTDFTLSINTVESEDIADYYCQQSHSWPFTFGSGTNLEVKR
Usually Kd stands for the equilibrium constant for the complex coming apart. A low value points to higher affinity. Usually koff stands for a measure of how fast the partners let go of each other. The kon is the second-order rate constant of association. The low end stands for slow association, the high end for fast association. The molecule B1 returned a Kd of 2.4 nM, a koff of 0.00131 s⁻¹ and a kon of 547000 M⁻¹ s⁻¹.
